Experimental findings from ChEMBL document CHEMBL6134906, “Design, Synthesis, and Biological Evaluation of Selective STING Synergists That Enhance cGAMP-STING Pathway Activation without Inherent Agonist Activity” (J Med Chem, 2025) are described below.

By UniProt entry, the sequences of proteins in these tests, tags left out. Where a name states a change or a piece, a line headed by the entry shows the natural chain unless it says otherwise.
UniProt Q86WV6: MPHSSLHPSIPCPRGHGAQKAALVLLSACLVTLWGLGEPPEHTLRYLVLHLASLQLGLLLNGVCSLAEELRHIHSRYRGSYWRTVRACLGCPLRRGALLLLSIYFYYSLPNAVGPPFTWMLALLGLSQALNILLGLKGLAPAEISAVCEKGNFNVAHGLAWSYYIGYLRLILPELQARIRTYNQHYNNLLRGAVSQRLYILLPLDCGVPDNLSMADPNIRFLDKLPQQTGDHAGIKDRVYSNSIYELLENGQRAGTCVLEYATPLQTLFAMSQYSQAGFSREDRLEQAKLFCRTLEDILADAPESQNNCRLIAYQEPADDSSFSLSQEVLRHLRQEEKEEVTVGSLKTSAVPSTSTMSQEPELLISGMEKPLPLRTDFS

Data set [1] addresses T1, Stimulator of interferon genes protein (Mus musculus) (UniProt Q3TBT3).
T1 sequence (whole entry): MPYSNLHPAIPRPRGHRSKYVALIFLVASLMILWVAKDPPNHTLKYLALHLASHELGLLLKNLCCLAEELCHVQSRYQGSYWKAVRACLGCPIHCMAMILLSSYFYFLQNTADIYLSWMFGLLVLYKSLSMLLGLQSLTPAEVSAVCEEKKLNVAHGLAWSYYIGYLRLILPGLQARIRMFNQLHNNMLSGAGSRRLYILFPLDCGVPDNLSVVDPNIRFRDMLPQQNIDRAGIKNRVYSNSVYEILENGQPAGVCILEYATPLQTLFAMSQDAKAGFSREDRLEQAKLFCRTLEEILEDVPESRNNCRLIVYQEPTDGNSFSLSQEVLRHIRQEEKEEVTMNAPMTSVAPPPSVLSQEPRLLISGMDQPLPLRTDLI
The note with it: HEK293, filed as agonist, dose 100.0 µM, time 48.0 hrs.

Data set [2] addresses T2, Stimulator of interferon genes protein (Homo sapiens, UniProt Q86WV6). Particulars: HEK293, filed as agonist, dose 100.0 µM, time 48.0 hrs.
Data set [3] addresses T2, Stimulator of interferon genes protein. The note with it: HEK293, filed as agonist, dose 33.0 µM, time 48.0 hrs.
Data set [4] addresses T1, Stimulator of interferon genes protein (Mus musculus). Particulars: HEK293, filed as agonist, dose 33.0 µM, time 48.0 hrs.
Data set [5] is described as follows: in vivo. Particulars: female, Sprague-Dawley, rat, po, 5 mg/kg.
The nature of data set [6]: in vivo. The note with it: female, Sprague-Dawley, rat, iv, 1 mg/kg.
Data set [7] in a line: in vivo. Particulars: female, Sprague-Dawley, rat, po, 5 mg/kg. This is another data set of the same source.
Data set [8] can be described thus: in vivo. The note with it: female, Sprague-Dawley, rat, po, 5 mg/kg. The source holds these as a separate data set.
Data set [9] deals with T3, Stimulator of interferon genes protein (Mus musculus, UniProt Q3TBT3).
T3 sequence (Q3TBT3 whole entry): T1 sequence (whole entry)

Data set [10] can be described thus: in vivo. The note with it: female, Sprague-Dawley, rat, po, 5 mg/kg. The source holds these as a separate data set.
Data set [11] in a line: in vivo. The note with it: female, Sprague-Dawley, rat, iv, 1 mg/kg. This is another data set of the same source.
Data set [12] in a line: in vivo. Particulars: female, Sprague-Dawley, rat, iv, 1 mg/kg. This is another data set of the same source.
The nature of data set [13]: in vivo. Particulars: female, Sprague-Dawley, rat, po, 5 mg/kg. The source holds these as a separate data set.
Data set [14] in a line: in vivo. The note with it: female, Sprague-Dawley, rat, iv, 1 mg/kg. The source holds these as a separate data set.
The next data set deals with THP-1. Put plainly: cells. Particulars: Homo sapiens, THP-1, 48 h, read-out: Activity.
Data set [15] can be described thus: in vivo. The note with it: female, Sprague-Dawley, rat, iv, 1 mg/kg. This is another data set of the same source.
A short description of data set [16]: in vivo. The note with it: female, Sprague-Dawley, rat, iv, 1 mg/kg. This is another data set of the same source.
The nature of data set [17]: in vivo. Particulars: female, Sprague-Dawley, rat, po, 5 mg/kg. This is another data set of the same source.
Data set [18] is described as follows: in vivo. The note with it: female, Sprague-Dawley, rat, iv, 1 mg/kg. This is another data set of the same source.
Data set [19] can be described thus: in vivo. The note with it: female, Sprague-Dawley, rat, po, 5 mg/kg. This is another data set of the same source.

The term EC80 denotes the concentration needed for an effect of 80%. Regarding `CCOC(=O)Cn1c2ccc(OC)cc2c(=O)c2cc(OC)c(C)c(C)c21`, the 80% effect concentration (EC80) in data set [1] is 3.63 µM; in data set [2], 3.6 µM; in data set [3], 6.4 µM; in data set [4] it was 6.73 µM.
By half-life is commonly meant the time needed for the level to fall by half in the phase considered. Usually Tmax stands for the time at which the peak concentration occurs. Broadly, the Cmax is the highest concentration seen after dosing. One may read the MRT inf as a mean duration of stay, worked out from the concentration-time curve. Broadly, the IC50 is the concentration that inhibits the measured activity by half. The clearance is a measure of how efficiently the substance is removed, as volume per time. As a reminder, the bioavailability is the share of a dose that reaches the circulation, judged against a reference dose that is usually intravenous. Higher therefore signals good availability. As a reminder, the Vd is a proportionality between amount in the body and measured concentration, not a real space. Read a high Vd as extensive tissue distribution. Usually AUC(0-inf) stands for the area under the concentration-time curve extrapolated to infinity. A lower AUC(0-inf) goes with low exposure. By CL/F is commonly meant clearance divided by bioavailability, as obtained after extravascular dosing. For `CCOC(=O)Cn1c2ccc(C)cc2c(=O)c2cc(OC)c(C)c(C)c21`, the values for the half-life at 24 h in the data set “in vivo [5]” and in the data set “in vivo [15]” were 8.6 h and 5.28 h, respectively. For the same compound, the Tmax at 24 h turned out to be 0.33 h in “in vivo [6]” and 0.5 h in “in vivo [10]”. In addition, the Cmax at 24 h in the data set “in vivo [7]” worked out at 0.39 µg/mL; in “in vivo [14]”, 0.353 µg/mL. The figures for the MRT inf at 24 h in “in vivo [8]” and in “in vivo [11]” were 5.89 h and 3.51 h, respectively. Further, it took 2.2 µM to reach half-maximal inhibition in data set [9] (IC50). The EC80 was determined as 0.72 µM in data set [1] and 2.61 µM in data set [4]. The clearance at 24 h in the data set “in vivo [12]” was 0.923 L/h/kg. In addition, the bioavailability at 24 h in “in vivo [13]” came out at 29.3%. Further, the viability at 100 µM in the data set with THP-1 was 98.1%. In “in vivo [16]”, this compound gave a Vd at 24 h of 3.2 L/kg. Further, the total exposure AUC(0-inf) at 24 h in “in vivo [17]” was 1.76 µg·h/mL; in “in vivo [18]” it was 1.2 µg·h/mL. The same compound gave an apparent clearance CL/F at 24 h in the data set “in vivo [19]” of 4.68 L/h/kg.
Consider `COc1cc2c(=O)c3cc(C)cc(C(=O)O)c3[nH]c2c(C)c1C`, for which the EC80 stood at 4.92 µM in [1], 2.28 µM in data set [2], 7.43 µM in data set [3] and 7.02 µM in [4].
